What all share (experiment): cells
The subject of experiment [1] is NCI-H522. Particulars: Homo sapiens, NCI-H522, 72 h.
The subject of experiment [2] is HCT-116. The conditions noted are these: Homo sapiens, HCT-116, 72 h.
For experiment [3], the system named is NCI-H522. The conditions noted are these: Homo sapiens, NCI-H522, 0.5 h.
The subject of experiment [4] is HCT-116. The conditions noted are these: Homo sapiens, HCT-116, 0.5 h.

SMILES strings stand for the structures.

Broadly, the IC50 is the concentration that inhibits the measured activity by half.

Regarding `C#Cc1nc(/C=C/CCCCCC(=O)OCC)cs1`, the IC50 amounted to 15.7 µM in the experiment on NCI-H522 [1] and 33 µM with HCT-116 [2]. For the compound `C#Cc1nc(/C=C/C(=O)OC)cs1`, the IC50 with NCI-H522 [1] came out at 2.29 µM; in the experiment on HCT-116 [2], 13.7 µM.

`C#Cc1nc(C=CCCCCCC(=O)O)cs1`: the IC50 in the experiment on HCT-116 [2] is more than 40 µM.

With `C#Cc1nc(C(=O)NCCCCCCC(=O)OC)cs1`, half-maximal inhibition in the experiment with NCI-H522 [1] (IC50) required 3.33 µM. In other words, the single-digit micromolar range. For the compound `C#Cc1nc(/C=C/C(=O)NO)cs1`, the figures for the IC50 with NCI-H522 [3] and in the experiment with HCT-116 [4] were 0.79 µM and 5.16 µM, respectively.

The compound `C#Cc1nc(/C=C\CCCCCC(=O)OCC)cs1` returned an IC50 with NCI-H522 [1] of 7.33 µM. In other words, the single-digit micromolar range. `C#Cc1nc(C(=O)NCCCCCCC(=O)NO)cs1` displayed an IC50 in the experiment on HCT-116 [4] of 0.61 µM. Regarding `C#Cc1nc(/C=C/C=C/C(=O)OC)cs1`, the IC50 in the experiment on NCI-H522 [1] turned out to be 2.8 µM. With `C#Cc1nc(/C=C/C=C/C(=O)NO)cs1`, the IC50 with NCI-H522 [3] stood at 0.52 µM; in the experiment on HCT-116 [4] it was 5.43 µM. For `C#Cc1nc(C2=C(C)[C@@H](O)CC2)cs1`, the IC50 with NCI-H522 [1] was 5.62 µM. That is a single-digit micromolar value.
